Reference: paper PMC6403082 (International Journal of Neuropsychopharmacology, 2018)

The chains behind the UniProt entries cited, without tags or fusion partners. Residues count along the entry.
UniProt Q12879, 23-1464: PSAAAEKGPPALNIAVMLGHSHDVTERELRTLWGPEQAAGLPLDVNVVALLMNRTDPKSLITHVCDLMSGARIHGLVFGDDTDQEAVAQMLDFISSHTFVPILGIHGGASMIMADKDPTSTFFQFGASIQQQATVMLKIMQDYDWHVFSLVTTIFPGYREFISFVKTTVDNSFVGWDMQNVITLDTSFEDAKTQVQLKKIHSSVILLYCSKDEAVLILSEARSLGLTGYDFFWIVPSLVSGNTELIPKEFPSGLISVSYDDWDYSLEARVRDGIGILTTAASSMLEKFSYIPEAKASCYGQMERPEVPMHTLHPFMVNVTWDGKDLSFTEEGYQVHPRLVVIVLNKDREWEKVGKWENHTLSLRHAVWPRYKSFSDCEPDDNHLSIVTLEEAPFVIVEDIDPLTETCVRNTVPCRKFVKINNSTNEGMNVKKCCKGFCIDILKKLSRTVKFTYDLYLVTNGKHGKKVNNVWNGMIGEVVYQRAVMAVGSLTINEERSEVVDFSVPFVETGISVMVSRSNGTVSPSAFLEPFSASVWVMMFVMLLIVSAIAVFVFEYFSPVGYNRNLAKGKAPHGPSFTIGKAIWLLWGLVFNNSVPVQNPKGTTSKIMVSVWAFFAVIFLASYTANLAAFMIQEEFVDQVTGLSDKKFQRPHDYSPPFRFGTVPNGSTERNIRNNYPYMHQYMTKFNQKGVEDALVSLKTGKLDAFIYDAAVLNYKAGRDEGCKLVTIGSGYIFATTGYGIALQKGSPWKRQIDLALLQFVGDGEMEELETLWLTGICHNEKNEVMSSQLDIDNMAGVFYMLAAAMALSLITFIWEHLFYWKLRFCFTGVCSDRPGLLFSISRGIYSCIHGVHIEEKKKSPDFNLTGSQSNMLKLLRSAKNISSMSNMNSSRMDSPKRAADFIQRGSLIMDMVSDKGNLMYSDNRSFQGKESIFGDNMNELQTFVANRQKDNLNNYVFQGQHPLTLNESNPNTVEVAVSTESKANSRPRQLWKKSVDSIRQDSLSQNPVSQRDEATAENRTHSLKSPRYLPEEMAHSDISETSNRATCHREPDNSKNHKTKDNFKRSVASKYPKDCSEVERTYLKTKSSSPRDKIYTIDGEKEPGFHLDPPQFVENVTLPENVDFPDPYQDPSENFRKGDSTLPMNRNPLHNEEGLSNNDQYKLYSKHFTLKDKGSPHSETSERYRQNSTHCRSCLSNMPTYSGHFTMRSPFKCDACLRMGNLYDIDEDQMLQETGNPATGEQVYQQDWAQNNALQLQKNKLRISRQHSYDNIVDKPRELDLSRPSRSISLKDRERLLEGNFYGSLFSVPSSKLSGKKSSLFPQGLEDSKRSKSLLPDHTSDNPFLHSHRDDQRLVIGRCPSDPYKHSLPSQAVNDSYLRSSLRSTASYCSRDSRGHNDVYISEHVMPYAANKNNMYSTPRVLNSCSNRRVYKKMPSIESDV
UniProt Q12879, 23-1464 R392E: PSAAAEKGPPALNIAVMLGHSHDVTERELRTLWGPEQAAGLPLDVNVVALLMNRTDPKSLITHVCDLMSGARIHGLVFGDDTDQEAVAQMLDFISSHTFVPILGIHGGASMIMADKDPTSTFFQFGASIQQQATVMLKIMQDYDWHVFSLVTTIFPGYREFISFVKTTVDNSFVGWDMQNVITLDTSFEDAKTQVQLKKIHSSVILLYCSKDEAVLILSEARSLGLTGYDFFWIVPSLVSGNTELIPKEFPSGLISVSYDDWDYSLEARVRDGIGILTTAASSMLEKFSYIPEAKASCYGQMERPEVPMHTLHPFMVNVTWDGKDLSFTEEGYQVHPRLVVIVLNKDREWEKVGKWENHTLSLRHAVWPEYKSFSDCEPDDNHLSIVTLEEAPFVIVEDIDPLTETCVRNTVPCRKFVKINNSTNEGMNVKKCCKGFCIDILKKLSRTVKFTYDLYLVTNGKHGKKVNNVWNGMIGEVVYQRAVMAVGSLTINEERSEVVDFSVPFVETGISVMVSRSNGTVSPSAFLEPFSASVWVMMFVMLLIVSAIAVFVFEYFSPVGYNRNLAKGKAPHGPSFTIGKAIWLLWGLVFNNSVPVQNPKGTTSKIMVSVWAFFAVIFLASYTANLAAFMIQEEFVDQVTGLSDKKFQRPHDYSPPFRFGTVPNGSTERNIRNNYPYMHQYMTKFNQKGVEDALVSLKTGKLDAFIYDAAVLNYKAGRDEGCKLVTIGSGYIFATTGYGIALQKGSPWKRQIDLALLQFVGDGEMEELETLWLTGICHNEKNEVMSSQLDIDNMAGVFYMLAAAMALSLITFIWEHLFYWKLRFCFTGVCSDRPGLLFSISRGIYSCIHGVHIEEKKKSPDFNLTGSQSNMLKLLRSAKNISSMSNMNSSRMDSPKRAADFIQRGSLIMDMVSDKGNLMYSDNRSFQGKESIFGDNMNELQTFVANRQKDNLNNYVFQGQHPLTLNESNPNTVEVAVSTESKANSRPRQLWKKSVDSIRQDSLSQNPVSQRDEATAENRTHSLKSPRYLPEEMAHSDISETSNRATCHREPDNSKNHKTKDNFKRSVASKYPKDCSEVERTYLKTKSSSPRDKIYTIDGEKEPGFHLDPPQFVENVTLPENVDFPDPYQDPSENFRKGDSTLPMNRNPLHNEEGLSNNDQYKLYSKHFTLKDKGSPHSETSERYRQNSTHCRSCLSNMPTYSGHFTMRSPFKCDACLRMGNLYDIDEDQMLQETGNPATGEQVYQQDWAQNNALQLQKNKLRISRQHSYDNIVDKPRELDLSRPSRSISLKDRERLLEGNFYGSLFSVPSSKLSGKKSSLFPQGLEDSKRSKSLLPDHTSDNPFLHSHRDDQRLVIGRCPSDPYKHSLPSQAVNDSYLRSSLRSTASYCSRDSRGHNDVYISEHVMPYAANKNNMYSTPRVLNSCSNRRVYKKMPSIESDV
UniProt Q13224, 27-1484: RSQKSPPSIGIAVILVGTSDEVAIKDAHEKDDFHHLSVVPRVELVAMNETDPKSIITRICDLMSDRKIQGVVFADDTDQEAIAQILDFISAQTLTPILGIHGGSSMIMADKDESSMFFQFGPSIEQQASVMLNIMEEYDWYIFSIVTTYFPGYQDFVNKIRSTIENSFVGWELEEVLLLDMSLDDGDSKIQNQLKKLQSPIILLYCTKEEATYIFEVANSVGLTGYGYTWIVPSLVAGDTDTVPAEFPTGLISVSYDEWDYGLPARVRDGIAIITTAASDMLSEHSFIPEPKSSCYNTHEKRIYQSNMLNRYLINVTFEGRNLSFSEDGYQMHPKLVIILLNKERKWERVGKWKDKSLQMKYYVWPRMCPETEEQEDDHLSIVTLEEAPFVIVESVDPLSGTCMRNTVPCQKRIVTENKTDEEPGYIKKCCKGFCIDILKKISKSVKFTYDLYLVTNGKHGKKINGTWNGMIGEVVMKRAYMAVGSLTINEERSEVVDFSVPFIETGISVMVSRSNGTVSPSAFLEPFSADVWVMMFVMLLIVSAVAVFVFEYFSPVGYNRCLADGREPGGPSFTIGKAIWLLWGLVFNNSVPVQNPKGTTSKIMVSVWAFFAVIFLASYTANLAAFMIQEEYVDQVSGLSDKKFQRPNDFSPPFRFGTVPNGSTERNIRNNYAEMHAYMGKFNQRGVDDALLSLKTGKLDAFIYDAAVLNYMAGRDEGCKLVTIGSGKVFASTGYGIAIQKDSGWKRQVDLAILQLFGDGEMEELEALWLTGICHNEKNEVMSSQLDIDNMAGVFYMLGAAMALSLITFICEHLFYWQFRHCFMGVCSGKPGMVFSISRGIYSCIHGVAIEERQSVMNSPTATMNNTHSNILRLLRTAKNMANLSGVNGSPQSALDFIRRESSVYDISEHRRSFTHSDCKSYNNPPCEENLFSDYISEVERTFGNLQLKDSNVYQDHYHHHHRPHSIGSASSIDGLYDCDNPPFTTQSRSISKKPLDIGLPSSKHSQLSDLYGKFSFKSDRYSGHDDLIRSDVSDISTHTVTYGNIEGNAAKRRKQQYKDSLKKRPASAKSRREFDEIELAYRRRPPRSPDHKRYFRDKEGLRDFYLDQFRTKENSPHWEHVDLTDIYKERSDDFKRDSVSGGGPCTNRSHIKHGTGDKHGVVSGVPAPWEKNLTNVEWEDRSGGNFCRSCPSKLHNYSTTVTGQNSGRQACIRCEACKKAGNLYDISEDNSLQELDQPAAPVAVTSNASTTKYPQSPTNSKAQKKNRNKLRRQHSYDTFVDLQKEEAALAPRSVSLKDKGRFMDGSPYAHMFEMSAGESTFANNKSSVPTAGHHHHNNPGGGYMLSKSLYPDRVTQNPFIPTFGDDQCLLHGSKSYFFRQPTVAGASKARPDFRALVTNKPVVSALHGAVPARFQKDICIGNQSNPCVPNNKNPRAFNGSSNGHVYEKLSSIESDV

Legend:
Assay type in all cases: cell-based
[1] = target: wild-type NR2A NMDAR in HEK293 cells (Homo sapiens, UniProt Q05586+Q12879)
[2] = target: mutant NR2A (R392E) NMDAR in HEK293 cells (Homo sapiens, UniProt Q05586+Q12879, R392E); test: Intracellular calcium response in HEK cells, NR2A R392E
[3] = target: wild-type NR2B NMDAR in HEK293 cells (Homo sapiens, UniProt Q05586+Q13224)

Receptor activation, % of 1 μM glutamate, wild-type NR2A [1]: 32.8 ± 3.5 % of 1 μM glutamate | Receptor activation, % of 1 μM glutamate, mutant NR2A (R392E) [2]: 29.4 ± 3.0% | Receptor activation, % of 1 μM glutamate, wild-type NR2B [3]: 22.3 ± 2.6%
Compound: N[C@@H](CCC(=O)O)C(=O)O [glutamate]
